Our source for the C50 values is patent publication US20130115216A1.

The test deals with HLA-B35 (human). Put plainly: assembly assay, HLA-B35 recovery from T2-B35 cell lysate.

C24 (EBNA3A458-466) (peptide): the C50 stood at 0.8 µM.
